The target in this assay is D(3) dopamine receptor (Homo sapiens, UniProt P35462). Put plainly: biochemical.

Amino acid sequences for entries named in this document (tags omitted).
UniProt P35462, whole entry: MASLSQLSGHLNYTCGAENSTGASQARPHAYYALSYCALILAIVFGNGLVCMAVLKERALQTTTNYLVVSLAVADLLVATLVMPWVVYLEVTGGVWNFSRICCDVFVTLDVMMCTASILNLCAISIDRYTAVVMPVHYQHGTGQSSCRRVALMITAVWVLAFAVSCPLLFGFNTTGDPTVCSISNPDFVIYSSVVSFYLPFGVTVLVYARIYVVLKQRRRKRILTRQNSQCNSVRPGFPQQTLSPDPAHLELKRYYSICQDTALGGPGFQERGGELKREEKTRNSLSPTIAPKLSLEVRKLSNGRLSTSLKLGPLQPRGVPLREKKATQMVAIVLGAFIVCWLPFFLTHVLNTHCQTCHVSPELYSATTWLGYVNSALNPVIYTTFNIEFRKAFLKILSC

Turning to `CCCN1CCO[C@@H]2c3cc4c(cc3CC[C@H]21)CCO4`, the Ki is 10 nM.

Regarding `CCCN1CCO[C@@H]2c3cc4c(cc3OC[C@H]21)CCO4`, the Ki was 501 nM.

A word on the Ki: it is the dissociation constant of the complex between target and ligand, obtained from inhibition or displacement. Low values mean a stronger hold on the target, high ones a looser hold on the target.

(Values after ChEMBL document CHEMBL1129892, “Tetracyclic analogues of [+]-S 14297: Synthesis and determination of affinity and selectivity at cloned human dopamine D3 vs D2 receptors” (Bioorg Med Chem Lett, 1997).)
